Test results: ChEMBL document CHEMBL3351363 (J Med Chem, 2014)

Protein sequences, listed by entry. Tags and fused reporters are not part of them.
UniProt P08173, whole entry: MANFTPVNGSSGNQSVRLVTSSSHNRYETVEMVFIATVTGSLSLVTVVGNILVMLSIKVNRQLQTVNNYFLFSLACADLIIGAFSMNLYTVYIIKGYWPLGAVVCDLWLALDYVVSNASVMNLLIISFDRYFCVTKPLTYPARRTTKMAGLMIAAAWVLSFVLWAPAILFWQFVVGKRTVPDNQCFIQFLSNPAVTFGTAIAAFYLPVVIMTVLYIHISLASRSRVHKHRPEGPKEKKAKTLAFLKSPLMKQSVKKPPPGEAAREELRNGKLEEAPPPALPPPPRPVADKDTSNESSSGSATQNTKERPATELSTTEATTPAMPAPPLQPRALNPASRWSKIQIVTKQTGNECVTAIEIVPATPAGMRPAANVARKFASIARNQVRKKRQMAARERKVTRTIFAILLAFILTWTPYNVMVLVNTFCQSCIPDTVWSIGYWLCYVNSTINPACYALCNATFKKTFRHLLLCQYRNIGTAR

Legend:
[1] = target: T1, Muscarinic acetylcholine receptor M4 (Homo sapiens, UniProt P08173); test: Antagonist activity at human M4 receptor expressed in HEK293T cells assessed as inhibition of carbachol-induced response by BRET based Gq protein engagement assay; format: cell-based, HEK-293T
[2] = target: T1, Muscarinic acetylcholine receptor M4; test: Antagonist activity at human M4 receptor expressed in HEK293T cells assessed as inhibition of carbachol-induced response by beta-arrestin engagement assay; format: cell-based, HEK-293T
[3] = target: T1, Muscarinic acetylcholine receptor M4

With `CN1[C@@H]2C[C@@H](OC(=O)[C@H](CO)c3ccccc3)C[C@H]1[C@@H]1O[C@@H]12` [SCOPOLAMINE] the pIC50 [1] was 8.42, the pIC50 [2] was 8.89 and the pIC50 [3] was 8.42.

pIC50: −log10 of the molar value.
